Values of other authors, collected in patent US20140141213A1, “PHOTOCURABLE INK COMPOSITION, INK JET RECORDING METHOD, RECORDED MATTER, INK SET, INK CARTRIDGE, AND RECORDING APPARATUS” (Seiko Epson Corporation, priority 2009, published 2014).

Conditions: primary irritation index

Substance: Glycerin PO-modified triacrylate
- P.I.I: 0.8
